ChEMBL document CHEMBL5505970 (J Med Chem, 2024)

What was measured:
Jurkat [1] = test: Selectivity for ATR over PI4K2B in human Jurkat cell lysates in presence of biotinylated ADP by KiNativ profiling based mass spectrometry
Jurkat [2] = test: Selectivity for ATR over PI4KB in human Jurkat cell lysates in presence of biotinylated ADP by KiNativ profiling based mass spectrometry
Jurkat [3] = test: Selectivity for ATR over PIK3CA in human Jurkat cell lysates in presence of biotinylated ADP by KiNativ profiling based mass spectrometry
Jurkat [4] = test: Selectivity for ATR over GSK3A in human Jurkat cell lysates in presence of biotinylated ADP by KiNativ profiling based mass spectrometry
Jurkat [5] = test: Selectivity for ATR over MSK1 domain 1 in human Jurkat cell lysates in presence of biotinylated ADP by KiNativ profiling based mass spectrometry
Jurkat [6] = test: Selectivity for ATR over AKT1 in human Jurkat cell lysates in presence of biotinylated ADP by KiNativ profiling based mass spectrometry
Jurkat [7] = test: Selectivity for ATR over AKT2/3 in human Jurkat cell lysates in presence of biotinylated ADP by KiNativ profiling based mass spectrometry
Jurkat [8] = test: Selectivity for ATR over AMPKa1/a2 in human Jurkat cell lysates in presence of biotinylated ADP by KiNativ profiling based mass spectrometry
Jurkat [9] = test: Selectivity for ATR over BARK1 in human Jurkat cell lysates in presence of biotinylated ADP by KiNativ profiling based mass spectrometry
Jurkat [10] = test: Selectivity for ATR over BIKE in human Jurkat cell lysates in presence of biotinylated ADP by KiNativ profiling based mass spectrometry
Jurkat [11] = test: Selectivity for ATR over CCRK in human Jurkat cell lysates in presence of biotinylated ADP by KiNativ profiling based mass spectrometry
Jurkat [12] = test: Selectivity for ATR over CDK10 in human Jurkat cell lysates in presence of biotinylated ADP by KiNativ profiling based mass spectrometry
Jurkat [13] = test: Selectivity for ATR over CHK1 in human Jurkat cell lysates in presence of biotinylated ADP by KiNativ profiling based mass spectrometry
Jurkat [14] = test: Selectivity for ATR over CHK2 in human Jurkat cell lysates in presence of biotinylated ADP by KiNativ profiling based mass spectrometry
Jurkat [15] = test: Selectivity for ATR over DLK in human Jurkat cell lysates in presence of biotinylated ADP by KiNativ profiling based mass spectrometry
Jurkat [16] = test: Selectivity for ATR over FYN/SRC/YES in human Jurkat cell lysates in presence of biotinylated ADP by KiNativ profiling based mass spectrometry
Jurkat [17] = test: Selectivity for ATR over JAK1 domain 1 in human Jurkat cell lysates in presence of biotinylated ADP by KiNativ profiling based mass spectrometry
Jurkat [18] = test: Selectivity for ATR over JNK1/2/3 in human Jurkat cell lysates in presence of biotinylated ADP by KiNativ profiling based mass spectrometry
Jurkat [19] = test: Selectivity for ATR over LATS2 in human Jurkat cell lysates in presence of biotinylated ADP by KiNativ profiling based mass spectrometry
Jurkat [20] = test: Selectivity for ATR over LCK in human Jurkat cell lysates in presence of biotinylated ADP by KiNativ profiling based mass spectrometry
Jurkat [21] = test: Selectivity for ATR over LKB1 in human Jurkat cell lysates in presence of biotinylated ADP by KiNativ profiling based mass spectrometry
Jurkat [22] = test: Selectivity for ATR over MAP2K1 in human Jurkat cell lysates in presence of biotinylated ADP by KiNativ profiling based mass spectrometry
Jurkat [23] = test: Selectivity for ATR over MAP2K7 in human Jurkat cell lysates in presence of biotinylated ADP by KiNativ profiling based mass spectrometry
Jurkat [24] = test: Selectivity for ATR over MAP3K2 in human Jurkat cell lysates in presence of biotinylated ADP by KiNativ profiling based mass spectrometry
Jurkat [25] = test: Selectivity for ATR over MAP3K3 in human Jurkat cell lysates in presence of biotinylated ADP by KiNativ profiling based mass spectrometry
Jurkat [26] = test: Selectivity for ATR over MAP4K3 in human Jurkat cell lysates in presence of biotinylated ADP by KiNativ profiling based mass spectrometry
Jurkat [27] = test: Selectivity for ATR over MAPKAPK2/3 in human Jurkat cell lysates in presence of biotinylated ADP by KiNativ profiling based mass spectrometry
Jurkat [28] = test: Selectivity for ATR over MELK in human Jurkat cell lysates in presence of biotinylated ADP by KiNativ profiling based mass spectrometry
Jurkat [29] = test: Selectivity for ATR over MPSK1 in human Jurkat cell lysates in presence of biotinylated ADP by KiNativ profiling based mass spectrometry
Jurkat [30] = test: Selectivity for ATR over MST3 in human Jurkat cell lysates in presence of biotinylated ADP by KiNativ profiling based mass spectrometry
Jurkat [31] = test: Selectivity for ATR over NDR1 in human Jurkat cell lysates in presence of biotinylated ADP by KiNativ profiling based mass spectrometry
Jurkat [32] = test: Selectivity for ATR over NDR2 in human Jurkat cell lysates in presence of biotinylated ADP by KiNativ profiling based mass spectrometry
Jurkat [33] = test: Selectivity for ATR over NEK7 in human Jurkat cell lysates in presence of biotinylated ADP by KiNativ profiling based mass spectrometry
Jurkat [34] = test: Selectivity for ATR over NEK8 in human Jurkat cell lysates in presence of biotinylated ADP by KiNativ profiling based mass spectrometry
Jurkat [35] = test: Selectivity for ATR over NLK in human Jurkat cell lysates in presence of biotinylated ADP by KiNativ profiling based mass spectrometry
Jurkat [36] = test: Selectivity for ATR over p38b in human Jurkat cell lysates in presence of biotinylated ADP by KiNativ profiling based mass spectrometry
Jurkat [37] = test: Selectivity for ATR over PDK1 in human Jurkat cell lysates in presence of biotinylated ADP by KiNativ profiling based mass spectrometry
Jurkat [38] = test: Selectivity for ATR over PKCh in human Jurkat cell lysates in presence of biotinylated ADP by KiNativ profiling based mass spectrometry
Jurkat [39] = test: Selectivity for ATR over PKD2 in human Jurkat cell lysates in presence of biotinylated ADP by KiNativ profiling based mass spectrometry
Jurkat [40] = test: Selectivity for ATR over PKD3 in human Jurkat cell lysates in presence of biotinylated ADP by KiNativ profiling based mass spectrometry
Jurkat [41] = test: Selectivity for ATR over RSK1 domain 1 in human Jurkat cell lysates in presence of biotinylated ADP by KiNativ profiling based mass spectrometry
Jurkat [42] = test: Selectivity for ATR over SBK in human Jurkat cell lysates in presence of biotinylated ADP by KiNativ profiling based mass spectrometry
Jurkat [43] = test: Selectivity for ATR over SGK3 in human Jurkat cell lysates in presence of biotinylated ADP by KiNativ profiling based mass spectrometry
Jurkat [44] = test: Selectivity for ATR over STLK6 in human Jurkat cell lysates in presence of biotinylated ADP by KiNativ profiling based mass spectrometry
Jurkat [45] = test: Selectivity for ATR over SYK in human Jurkat cell lysates in presence of biotinylated ADP by KiNativ profiling based mass spectrometry
Jurkat [46] = test: Selectivity for ATR over TAO1/3 in human Jurkat cell lysates in presence of biotinylated ADP by KiNativ profiling based mass spectrometry
Jurkat [47] = test: Selectivity for ATR over TLK1 in human Jurkat cell lysates in presence of biotinylated ADP by KiNativ profiling based mass spectrometry
Jurkat [48] = test: Selectivity for ATR over Wnk1/2/4 in human Jurkat cell lysates in presence of biotinylated ADP by KiNativ profiling based mass spectrometry

Measured: Selectivity ratio

C[C@@H]1COCCN1c1cc([C@]2(O)C[C@H]3CC[C@@H](C2)O3)c2cnn(-c3cc[nH]n3)c2n1 [CAMONSERTIB]
10: Jurkat [1] | Jurkat [2] | Jurkat [3] | Jurkat [4] | Jurkat [5] | Jurkat [6] | Jurkat [7] | Jurkat [8] | Jurkat [9] | Jurkat [10] | Jurkat [11] | Jurkat [12] | Jurkat [13] | Jurkat [14] | Jurkat [15] | Jurkat [16] | Jurkat [17] | Jurkat [18] | Jurkat [19] | Jurkat [20] | Jurkat [21] | Jurkat [22] | Jurkat [23] | Jurkat [24] | Jurkat [25] | Jurkat [26] | Jurkat [27] | Jurkat [28] | Jurkat [29] | Jurkat [30] | Jurkat [31] | Jurkat [32] | Jurkat [33] | Jurkat [34] | Jurkat [35] | Jurkat [36] | Jurkat [37] | Jurkat [38] | Jurkat [39] | Jurkat [40] | Jurkat [41] | Jurkat [42] | Jurkat [43] | Jurkat [44] | Jurkat [45] | Jurkat [46] | Jurkat [47] | Jurkat [48]
